According to US5789558:

| rate of incorporation of [3H]prenyl into substrate protein (acid/ethanol insoluble radioactivity) (nmol · h^-1 · mg^-1) (Ras-CAIL) | rate of incorporation of [3H]prenyl into substrate protein (acid/ethanol insoluble radioactivity) (nmol · h^-1 · mg^-1) (Ras-CVLS) | Substance |
| --- | --- | --- |
| 66 | 840 | recombinant human FTase (protein farnesyltransferase) (from UniProt P49354) (enzyme) |
| 1060 | < 1 | recombinant human GGTase-I (protein geranylgeranyltransferase type I) expressed in E. coli from pRD577 (from UniProt P49354) (enzyme) |
